Laboratory results reported in PubChem BioAssay (Tox21).
Where “and” joins values, the source holds several entries; their conditions need not be identical. Identical values can stand only once. Only a part is listed here, and it is no random draw. Records with an inconclusive call do not appear. Calls of active or inactive are those of the source. Unless noted, the call rests on the fitted dose curve.

Amino acid sequences for entries named in this document (tags omitted).
UniProt P30968, whole entry: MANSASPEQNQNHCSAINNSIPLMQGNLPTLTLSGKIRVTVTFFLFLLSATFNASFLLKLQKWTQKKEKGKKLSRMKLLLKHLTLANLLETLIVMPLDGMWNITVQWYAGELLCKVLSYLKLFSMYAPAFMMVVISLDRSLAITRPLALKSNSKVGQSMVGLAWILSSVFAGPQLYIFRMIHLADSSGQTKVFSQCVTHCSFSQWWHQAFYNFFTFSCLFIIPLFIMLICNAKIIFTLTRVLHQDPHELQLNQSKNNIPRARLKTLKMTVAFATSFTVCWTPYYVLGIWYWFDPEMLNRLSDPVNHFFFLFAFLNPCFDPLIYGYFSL
UniProt Q969F8, whole entry: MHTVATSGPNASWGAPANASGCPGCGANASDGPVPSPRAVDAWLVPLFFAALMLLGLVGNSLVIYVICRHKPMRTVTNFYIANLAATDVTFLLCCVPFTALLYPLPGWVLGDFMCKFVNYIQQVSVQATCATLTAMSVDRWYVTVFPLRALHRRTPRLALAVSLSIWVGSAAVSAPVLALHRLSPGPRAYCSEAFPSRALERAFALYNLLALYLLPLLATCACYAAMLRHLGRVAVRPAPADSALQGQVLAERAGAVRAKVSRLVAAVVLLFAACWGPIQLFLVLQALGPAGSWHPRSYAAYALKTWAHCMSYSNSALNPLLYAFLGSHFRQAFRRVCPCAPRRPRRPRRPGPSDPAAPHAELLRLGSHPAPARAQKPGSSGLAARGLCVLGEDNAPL
UniProt P28223, whole entry: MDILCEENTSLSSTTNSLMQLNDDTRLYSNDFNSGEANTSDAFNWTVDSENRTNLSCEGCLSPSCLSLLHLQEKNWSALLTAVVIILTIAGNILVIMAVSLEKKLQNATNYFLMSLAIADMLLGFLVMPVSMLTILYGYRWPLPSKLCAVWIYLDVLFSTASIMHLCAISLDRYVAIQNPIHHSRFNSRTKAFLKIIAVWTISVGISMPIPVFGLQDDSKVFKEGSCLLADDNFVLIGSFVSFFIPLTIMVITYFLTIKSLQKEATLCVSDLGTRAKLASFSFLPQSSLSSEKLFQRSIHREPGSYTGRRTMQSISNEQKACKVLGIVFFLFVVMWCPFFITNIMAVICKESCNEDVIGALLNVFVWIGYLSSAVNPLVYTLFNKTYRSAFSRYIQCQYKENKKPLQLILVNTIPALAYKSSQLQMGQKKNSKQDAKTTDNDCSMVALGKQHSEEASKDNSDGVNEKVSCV
UniProt P11229, whole entry: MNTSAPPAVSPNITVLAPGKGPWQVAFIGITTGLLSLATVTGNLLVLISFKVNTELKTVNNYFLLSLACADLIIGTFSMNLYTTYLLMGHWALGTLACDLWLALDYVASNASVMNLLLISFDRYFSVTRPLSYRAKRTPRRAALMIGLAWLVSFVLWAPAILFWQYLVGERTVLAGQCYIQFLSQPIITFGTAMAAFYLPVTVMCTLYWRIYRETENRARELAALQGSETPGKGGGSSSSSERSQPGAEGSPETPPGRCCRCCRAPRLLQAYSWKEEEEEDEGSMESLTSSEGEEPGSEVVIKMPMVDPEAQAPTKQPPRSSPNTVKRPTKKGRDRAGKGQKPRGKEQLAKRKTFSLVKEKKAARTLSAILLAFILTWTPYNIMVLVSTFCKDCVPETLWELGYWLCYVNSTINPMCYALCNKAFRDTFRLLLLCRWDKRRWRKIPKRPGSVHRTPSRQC
UniProt P07550, whole entry: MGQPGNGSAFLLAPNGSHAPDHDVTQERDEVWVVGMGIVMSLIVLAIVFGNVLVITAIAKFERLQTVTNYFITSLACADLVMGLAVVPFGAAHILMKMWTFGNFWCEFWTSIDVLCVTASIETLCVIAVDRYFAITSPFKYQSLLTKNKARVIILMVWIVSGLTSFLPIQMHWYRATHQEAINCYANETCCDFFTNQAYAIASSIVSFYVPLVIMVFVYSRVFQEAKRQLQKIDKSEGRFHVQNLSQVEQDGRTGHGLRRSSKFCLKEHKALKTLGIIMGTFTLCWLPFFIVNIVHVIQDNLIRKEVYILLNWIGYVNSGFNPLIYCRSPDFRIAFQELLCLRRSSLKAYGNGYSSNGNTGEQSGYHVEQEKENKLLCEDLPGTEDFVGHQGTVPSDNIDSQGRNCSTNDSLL
UniProt P14416, whole entry: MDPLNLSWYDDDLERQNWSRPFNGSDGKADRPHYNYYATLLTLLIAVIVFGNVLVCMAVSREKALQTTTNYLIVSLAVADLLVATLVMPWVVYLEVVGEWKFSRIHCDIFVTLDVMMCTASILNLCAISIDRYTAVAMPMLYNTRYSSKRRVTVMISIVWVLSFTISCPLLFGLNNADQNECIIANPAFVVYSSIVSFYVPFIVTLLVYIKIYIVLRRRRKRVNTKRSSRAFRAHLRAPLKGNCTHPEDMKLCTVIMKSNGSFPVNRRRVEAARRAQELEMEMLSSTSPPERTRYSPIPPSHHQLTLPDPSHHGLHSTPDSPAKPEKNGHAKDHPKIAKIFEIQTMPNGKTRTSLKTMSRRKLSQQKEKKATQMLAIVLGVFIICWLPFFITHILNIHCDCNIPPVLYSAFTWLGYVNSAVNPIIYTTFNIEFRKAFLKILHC

Experiments:
[1] = Nuclear factor erythroid 2-related factor 2/antioxidant responsive element (Nrf2/ARE) small molecule agonists: qHTS cell viability counter screen in human keratinocytes (AID 1919968; active means well fitted curve in the direction sought with a large enough effect in the repeat runs; an effect the other way counts as inactive or inconclusive; further: nearly all actives have a fitted effect of over 55% in size); details: KeratinoSens HaCaT ARE cells viability, CellTiter-Fluor, 24 h; at 92.4 µM (top of the series) unless noted
Method in brief: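 KeratinoSens HaCaT cells, 1,500/well, preincubated 5 h, then exposed to compounds in DMSO for 23 h at 37 C/5% CO2. Viability read as CellTiter-Fluor fluorescence after 1 h, in the same wells as the ARE-luciferase read.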

[2] = target: Gonadotropin-releasing hormone receptor (Homo sapiens) (UniProt P30968); experiment: Human gonadotropin-releasing hormone receptor (GnRHR) small molecule agonists, calcium flux assay in GnRHR-HEK293 cells (AID 1920063); details: calcium flux fluorescence, agonist mode, active compounds read high; at 57.6 µM (top of the series) unless noted; further: nearly all actives have a fitted effect of over 35% in size
Method in brief: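 HEK293 cells stably expressing human GnRHR were dye-loaded for 1 h at 37 C. Compound was added in agonist mode and fluorescence (Ex/Em 480/540) recorded kinetically for 3 min. Fifteen concentrations, triplicates.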

[3] = target: KiSS-1 receptor (Homo sapiens) (UniProt Q969F8); experiment: Human kisspeptin (KISS1R) small molecule agonists, calcium flux assay in KISS1R-HEK293 cells (AID 1920064; active means well fitted curve in the direction sought with a large enough effect in the repeat runs; an effect the other way counts as inactive or inconclusive); details: KISS1R-HEK293, calcium flux fluorescence, agonist; at 76.8 µM (top of the series) unless noted
Method in brief: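 HEK293 cells stably expressing human KISS1R were loaded with calcium dye for 1 h at 37 C, then given compound; fluorescence (Ex/Em 480/540) was read kinetically for 3 min. Fifteen concentrations, triplicate.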

[4] = G protein-coupled receptor (GPCR) small molecule agonists, calcium flux assay: HEK293 wild type cell line counter screen (AID 1920065); details: HEK293 WT calcium flux, fluorescence, agonist mode; at 57.6 µM (top of the series) unless noted
Method in brief: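 Wild-type HEK293 cells plated 18 h, loaded with calcium dye 1 h at 37 C, then compounds added in agonist mode (ATP as positive control). Kinetic fluorescence Ex/Em 480/540 recorded 3 min at 1 sec intervals; 15 concentrations, triplicate.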

[5] = p53 small molecule agonists, cell-based qHTS assay with human liver microsomes (AID 1963577); details: HCT-116 p53RE-bla with human liver microsomes, ratio, 16 h; at 66 µM (top of the series) unless noted;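 further: p53 response element beta-lactamase reporter cells with liver microsomes plus NADPH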
Method in brief: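 In this qHTS, p53 response-element beta-lactamase cells receive test compound together with a microsome/NADPH activating system (0.5 mg/mL final each) and are incubated 16 h at 37 C before LiveBLAzer fluorescence detection.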

[6] = p53 small molecule agonists, cell-based qHTS assay with rat liver microsomes (AID 1963578); details: HCT-116 p53RE-bla, beta-lactamase ratio, 16 h; at 66 µM (top of the series) unless noted
Method in brief: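 Agonist mode in p53RE-bla reporter cells, with compounds co-incubated 16 h at 37 C alongside 0.5 mg/mL rat liver microsomes and 0.5 mg/mL NADPH (final), followed by a 2 h LiveBLAzer detection step.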

[7] = p53 small molecule agonists, cell-based qHTS assay with human liver microsomes: qHTS cell viability counter screen (AID 1963579); details: p53RE-bla HCT-116 viability, ATP luminescence, 16 h, HLM; at 66 µM (top of the series) unless noted; further: nearly all actives have a fitted effect of over 45% in size
Method in brief: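 Metabolically activated exposure: compounds, human liver microsomes and NADPH (0.5 mg/mL final apiece) were added to p53RE-bla cells seeded 5 h earlier, left 16 h at 37 C, and then assessed for viability by CellTiter-Glo luminescence.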

[8] = p53 small molecule agonists, cell-based qHTS assay with rat liver microsomes: qHTS cell viability counter screen (AID 1963580); details: p53RE-bla HCT-116 + rat microsomes, ATP viability, 16 h; at 66 µM (top of the series) unless noted; further: nearly all actives have a fitted effect of over 45% in size
Method in brief: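 Intracellular ATP, by CellTiter-Glo luminescence, defines viability. HCT-116 p53RE-bla cells, 4,000 per well, were compound-treated in the presence of rat liver microsomes and NADPH for 16 h at 37 C.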

[9] = p53 small molecule agonists, cell-based qHTS assay: qHTS cell viability counter screen (AID 1963581); details: p53RE-bla HCT-116 viability, ATP luminescence, 16 h; at 66 µM (top of the series) unless noted; further: nearly all actives have a fitted effect of over 45% in size
Method in brief: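 p53RE-bla HCT-116 cells, compounds added 5 h after plating and incubated 16 h at 37 C. Cytotoxicity measured in the same wells as intracellular ATP by CellTiter-Glo luminescence after 30 min at room temperature.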

[10] = p53 small molecule agonists, cell-based qHTS assay (AID 1963582; active means well fitted activation curve with a large enough effect in the signal ratio in the repeat runs, not every such curve was filed as active; the % refers to the signal ratio); details: HCT-116 p53RE-bla reporter, beta-lactamase FRET ratio, 16 h; at 66 µM (top of the series) unless noted
Method in brief: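 p53RE-bla reporter cells, compounds added in DMSO after 5 h plating, incubated 16 h at 37 C. Beta-lactamase read via 2 h room-temperature LiveBLAzer B/G FRET substrate, fluorescence intensity.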

[11] = target: 5-hydroxytryptamine receptor 2A (Homo sapiens) (UniProt P28223); experiment: 5-hydroxytryptamine receptor 2A (HTR2A) small molecule antagonists, cell-based qHTS assay (AID 1963586); details: HTR2A-CHO cells, DOI-induced calcium flux, fluorescence; at 61.5 µM (top of the series) unless noted; further: nearly all actives have a fitted effect of over 45% in size
Method in brief: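 Antagonist-mode intracellular calcium assay: DOI (4 nM) added after 5 min compound pre-incubation at room temperature to dye-loaded HTR2A-CHO cells. Fluorescence followed for 3 min, sampled every second.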

[12] = target: 5-hydroxytryptamine receptor 2A (Homo sapiens) (UniProt P28223); experiment: 5-hydroxytryptamine receptor 2A (HTR2A) small molecule agonists, cell-based qHTS assay (AID 1963587); details: HTR2A-CHO cells, calcium flux fluorescence, agonist mode; at 76.8 µM (top of the series) unless noted; further: nearly all actives have a fitted effect of over 30% in size
Method in brief: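 Kinetic calcium-flux fluorescence (2 min, 1 sec intervals) after compound addition in agonist mode. HTR2A-CHO cells were cultured 18 h, then dye-loaded 1 h at 37 C.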

[13] = target: Muscarinic acetylcholine receptor M1 (Homo sapiens) (UniProt P11229); experiment: Cholinergic receptor muscarinic 1 (CHRM1) small molecule antagonists, cell-based qHTS assay (AID 1963588); details: CHRM1-CHO antagonist mode, calcium flux fluorescence; at 61.5 µM (top of the series) unless noted; further: nearly all actives have a fitted effect of over 40% in size
Method in brief: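 CHRM1-CHO calcium-flux assay, antagonist mode. Cells were seeded 18 h, dye-loaded 1 h at 37 C and given compound for 5 min at RT, then acetylcholine was added at 50nM. FDSS fluorescence was read 3 min; 15 concentrations, three runs.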

[14] = target: Muscarinic acetylcholine receptor M1 (Homo sapiens) (UniProt P11229); experiment: Cholinergic receptor muscarinic 1 (CHRM1) small molecule agonists, cell-based qHTS assay (AID 1963589); details: CHRM1-CHO cells, agonist mode, calcium flux fluorescence; at 76.8 µM (top of the series) unless noted; further: nearly all actives have a fitted effect of over 35% in size
Method in brief: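 CHO cells stably expressing human CHRM1 were loaded with calcium dye for 1 h at 37 C, then compound was added in agonist mode. Intracellular calcium fluorescence was followed kinetically at 1 s intervals. Fifteen concentrations were tested in three independent runs.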

[15] = target: Beta-2 adrenergic receptor (Homo sapiens) (UniProt P07550); experiment: Adrenergic beta2 receptor (ADRB2) small molecule antagonists, cell-based qHTS assay (AID 1963592); details: CHO-ADRB2 cells, isoproterenol-stimulated cAMP HTRF ratio, 0.5 h; at 92.4 µM (top of the series) unless noted; further: nearly all actives have a fitted effect of over 50% in size
Method in brief: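 Cells (CHO, stable ADRB2 overexpression) incubated 18-20hr at 37C; compounds added from DMSO; agonist mix (1nM isoproterenol, 100uM IBMX, 25uM Ro-20-1724) added; 0.5hr RT; d2-cAMP and anti-cAMP-cryptate added; 1hr RT; 665/615 nm read.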

[16] = target: D(2) dopamine receptor (Homo sapiens) (UniProt P14416); experiment: Dopamine D2 receptor (DRD2) small molecule agonists, cell-based qHTS assay (AID 1963594); details: HEK293-DRD2 cAMP HTRF, agonist mode, 30 min; at 92.4 µM (top of the series) unless noted; further: nearly all actives have a fitted effect of over 35% in size
Method in brief: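 cAMP accumulation in DRD2-HEK293 cells measured by HTRF after 1 h detection; compounds added 10 min before NKH477 (200nM […]) forskolin-analogue stimulation, 30 min at room temperature, with Ro20-1724 present at 0.1 mM final.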

[17] = target: D(2) dopamine receptor (Homo sapiens) (UniProt P14416); experiment: Dopamine D2 receptor (DRD2) small molecule antagonists, cell-based qHTS assay (AID 1963595; active means well fitted inhibition curve with a large enough effect in the signal ratio in the repeat runs, with a control signal flat; the % refers to the signal ratio); details: HEK293-DRD2 cAMP HTRF antagonist mode; at 92.4 µM (top of the series) unless noted
Method in brief: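 Readout: HTRF cAMP, cAMP-d2 competing with cellular cAMP for anti-cAMP cryptate, read after 1 h. Cells: DRD2-HEK293. Conditions: 0.1 mM Ro20-1724, 12 nM quinpirole, 200 nM NKH477, 30 min RT.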

[18] = Nuclear factor erythroid 2-related factor 2/antioxidant responsive element (Nrf2/ARE) small molecule agonists: luciferase reporter gene qHTS assay in human keratinocytes (AID 1919969); details: KeratinoSens HaCaT ARE-luciferase, luminescence, 24 h; at 92.4 µM (top of the series) unless noted; further: nearly all actives have a fitted effect of over 35% in size
Excerpt: National Center for Advancing Translational Sciences [NCATS]
Division of Preclinical Innovation [DPI]
U.S. Environmental Protection Agency [EPA]
National Institutes of Environmental Health Sciences [NIEHS]
National Toxicology Program [NTP]
U.S. Food and Drug Administration [FDA]
Oxidative stress has been implicated in the pathogenesis of a variety of diseases ranging from cancer to neurodegeneration. The antioxidant response element (ARE) signaling pathway plays an important role in the amelioration of oxidative stress. The KeratinoSens (Givaudan, Switzerland) is an in vitro test method which quantifies luciferase induction as a measure of activation of Keap1-Nrf2-antioxidationt/electrophile response element (ARE) dependant pathway in HaCaT human keratinocytes stably transfected with a selectable plasmid. The KeratinoSens assay is a cell-based assay with a reporter cell line to detect potential skin sensitizers by their ability to induce the Nrf2/ARE-response. The activation of the report gene under culture conditions can be detected by ONE-Glo Luciferase Assay System (Promega, Madison, WI). This cell line has been used to screen the Tox21 10K compound library to identify agonists that induce oxidative stress. The cytotoxicity of the Tox21 compound library against the KS-ARE cell line was tested in parallel by measuring the cell viability using CellTiter- Fluor assay system (Promega, Madison, WI) in the same wells.
HaCaT derived cell line KeratinoSens were dispensed at 1,500 cells/5uL/well in 1536-well white wall/solid bottom plates using a Multidrop Combi (ThermoFisher Scientific, Waltham, MA) dispenser. After the assay plates were incubated at 37 C/5% CO2 for 5 h, 23 nL of compounds dissolved in DMSO, positive controls or DMSO only was transferred to the assay plate by a pintool workstation (Kalypsys, San Diego, CA). The plates were incubated at 37 C/5% CO2 for 23 h, followed by addition of 1uL/well of CellTiter-Fluor reagent into the assay plates using a Flying Reagent Dispenser (Aurora Discovery, San Diego, CA) for cell viability readout that measures cytotoxicity. After 1 h incubation at 37 C/5% CO2 the fluorescence intensity was measured using a ViewLux (PerkinElmer, Shelton, CT) plate reader. Then 4uL/well of One-Glo were added using a Flying Reagent Dispenser. After the plates were incubated at room temperature for 30 min, the luminescence intensity in the assay plates was measured using ViewLux plate reader.

[19] = cAMP Responsive Elements (CRE) small molecule agonists, cell-based qHTS assay (AID 1963590); details: CRE-bla HEK293T, beta-lactamase FRET ratio, 3 h; at 92.4 µM (top of the series) unless noted
Method in brief: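 CRE-bla HEK 293T cells, 2,000/well in DMEM with 10% dialyzed FBS and 25 mM HEPES, pre-incubated 18 h at 37 C, then exposed to compound 3 h at 37 C. Beta-lactamase reporter read with LiveBLAzer B/G FRET substrate after 2 h at room temperature.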

[20] = cAMP Responsive Elements (CRE) small molecule antagonists, cell-based qHTS assay (AID 1963591; active means well fitted inhibition curve with a large enough effect in the signal ratio in the repeat runs, not every such curve was filed as active; the % refers to the signal ratio); details: CRE-bla HEK293T, beta-lactamase FRET ratio; at 92.4 µM (top of the series) unless noted
Method in brief: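 CRE-bla HEK293T cells plated 18 h, then given compound plus NKH477 at 0.25 uM final for 3 h at 37C. Beta-lactamase reporter read with LiveBLAzer B/G FRET substrate after 2 h at room temperature.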
On the % scale 0 is the no-effect control and ±100 the full control effect.

O=[N+]([O-])c1ccccc1[N+](=O)[O-]
inactive: activity change, negative = cytotoxicity [1] 0.42% and -1.19% | activity change [2] 0.249% and -0.0953% | activation [3] -0.746% and 0.435% | activation [4] 0.174% and 0.485% | activation [5] -6.23% and -1.12% | activation [6] -3.02% and 0.0779% | activity change, negative = cytotoxicity [7] 1.42% and -2.97% | activity change, negative = cytotoxicity [8] -5.72% and -1.43% | activity change, negative = cytotoxicity [9] -4.66% and -1.13% | activation [10] -2.57% | activity, negative = inhibition [11] -1.63% and -10.7% | activation [12] 0.994% and 7.57% | activity, negative = inhibition [13] 45% and -7.01% | activation [14] -0.207% and -0.757% | activity change, negative = inhibition [15] -0.159% and 13.3% | activation [16] -0.179% and -6.6% | activity change, negative = inhibition [17] -9.09% and -4.37%

ClCCNCCCl
inactive: activity change, negative = cytotoxicity [1] -3.41% | activity, positive = activation [18] -0.114% | activity change [2] -0.162% | activation [3] 1.11% | activation [4] -0.35% | activation [5] 0.151% | activation [6] 0.588% | activity change, negative = cytotoxicity [7] 1.9% | activity change, negative = cytotoxicity [8] -7.96% | activity change, negative = cytotoxicity [9] -6.44% | activation [10] 3.43% | activity, negative = inhibition [11] -2.81% | activation [12] 0.221% | activity, negative = inhibition [13] 23.7% | activation [14] 0.043% | activation [19] 0.0083% | activity change, negative = inhibition [20] -4.95% | activity change, negative = inhibition [15] 0.305% | activation [16] 0.155% | activity change, negative = inhibition [17] 0.378%
